An excerpt weighted towards active compounds, which were near 1% of everything screened.
miR-21 reporter: miR-21 reporter, rising signal; 340,000 tested, under 10 active; Potency, µM (highest dose often 38.3 µM), for the others: top-dose reporter change, positive = more light; HeLa miR-21 FLuc reporter, luciferase, 48 h; active = well fitted rising curve with a large enough effect; inconclusive = small, poorly fitted or top-dose-only effect; inactive = no such curve, though single readings can be large or run the other way;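 further: % of control where 0% means no effect; miR-21 action dims this reporter so a rising signal means less miR-21 action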
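HeLa cells endogenously expressing miR-21, stably carrying CMV-driven firefly luciferase with a downstream miR-21 binding site, 2000 cells/well. Titrations up to approximately 40 uM, 48 hours; luciferase luminescence read.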
RXFP1 agonist: agonists of human relaxin receptor RXFP1 | Potency, µM (doses to about 57.5 µM), without a hit: at the highest dose activation, hits mostly activators | 370,000 tested, 0.3% active | HEK293T-RXFP1 cAMP TR-FRET, 30 min; response scale: percent of porcine relaxin response, buffer zero; further: potency means the concentration at half of the fitted maximal effect; on the % scale 0 is the no-effect control and ±100 the full control effect; nearly all actives have a fitted effect of over 60% in size
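HEK293T cells stably expressing RXFP1 were pretreated with the PDE4 inhibitor Ro 20174, exposed to compounds for 30 min at 37C, lysed, and cAMP was read by TR-FRET. Data normalized to buffer (basal) and 29 nM porcine relaxin (100%).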
RXFP1 antagonist: RXFP1 (human) relaxin receptor antagonism; Q9HBX9; HEK293-RXFP1, relaxin-stimulated cAMP HTRF, 30 min; hits give low values; activity change, negative = inhibition, % at 57.5 µM; 350,000 tested, 0.59% active;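 active means activity change of -60% or lower, but not beyond a set lower limit; inconclusive means change between -60% and -40%, or beyond the set limit; inactive means change above -40%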; further: on the % scale 0 is the no-effect control and ±100 the full control effect
gsp antagonist: antagonizes gsp, the McCune-Albright syndrome mutation. Potency, µM (highest dose often 76.9 µM), for the others: at the top dose activity change, negative = inhibition, usual class: inhibitors. gsp-mutant cells, cAMP HTRF, 30 min. 340,000 tested, 0.4% active; calls by dose curve; cell line not stated here;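 further: intracellular cAMP measured with PDE inhibitor Ro 20-1724 present during compound exposure; potency means the concentration at half of the fitted maximal effect; on the % scale 0 is the no-effect control and ±100 the full control effect; nearly all actives have a fitted effect of over 65% in size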
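HTRF cAMP measurement after 30 min RT detection following 30 min, 37C compound treatment alongside […] (added as 300 uM solution) in G418-selected cells seeded at 2000/well and grown 16–24 h.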
gsp agonist: agonists of gsp mutant (McCune-Albright syndrome); gsp mutant cells, cAMP HTRF, 30 min; Potency, µM (top dose mostly 76.9 µM), for the others: top-dose activation (cAMP increase), most hits filed as activators; 340,000 tested, 0.13% active; AID 624287; active means well fitted activation curve with a large enough effect; inconclusive means small, poorly fitted or top-dose-only effect, or another doubt; inactive means no such curve, though single readings can be large or run the other way; cell line not stated here;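 further: phosphodiesterase inhibitor Ro 20-1724 added with compounds to block cAMP breakdown; potency means the concentration at half of the fitted maximal effect; nearly all actives have a fitted effect of over 60% in size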
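Cells stably selected in G418 were plated at 2000/well, grown 16-24 hr, then given compounds in DMSO with the PDE inhibitor […] (300 uM solution added) for 30 min at 37C; cAMP was read by HTRF.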
KinaseGlo FLuc: blocks Kinase-Glo luciferase, a counter-screen artifact; Q27757; Kinase-Glo luciferase, ATP luminescence, 8 min; Potency, µM (highest dose often 38.3 µM), inactives show at the top dose activity change, negative = inhibition, usual class: inhibitors; 200,000 tested, 0.28% active; further: potency means the concentration at half of the fitted maximal effect; on the % scale 0 is the no-effect control and ±100 the full control effect; nearly all actives have a fitted effect of over 60% in size
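Compound is pinned into ATP-containing buffer (10 uM ATP, imidazole pH 7.2, 7 mM MgCl2). Kinase-Glo luciferase reagent is then added. Light output is recorded following an 8-min room-temperature incubation.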
The depositor's hits bear a star; ? = inconclusive; . = no result; [ ] = remark or other dose. Unless noted, the call rests on the fitted dose curve; in most records, active means well fitted curve in the direction sought with a large enough effect; inconclusive means small, poorly fitted or top-dose-only effect, or another doubt; inactive means no such curve, though single readings can be large; an effect the other way counts as inactive or inconclusive.

Compound | RXFP1 agonist | gsp antagonist | KinaseGlo FLuc | RXFP1 antagonist | miR-21 reporter | gsp agonist
Nc1ncnc2c1ncn2[C@@H]1O[C@H](COP(=O)(O)O)[C@@H](O)[C@@H]1O | . | . | 4µM* | . | . | .
Nc1ncnc2c1ncn2C1OC(COP(=O)(O)O)C(O)C1O (stereo not drawn) | ? | -1% | 2µM* | . | 2% | .
O=[N+]([O-])c1cccc(N/N=C/c2cccc(O)c2O)c1 | 2% | -7% | 0% | -87* | -64% | 6%[15.4 µM]
Fc1ccc2c(c1)-c1nc(-c3ccccc3)cc(-c3ccccc3)c1CO2 | -1% | . | . | . | -12% | .
Cc1sc2ncn(CC(=O)NCC(=O)N(C)Cc3ccccc3)c(=O)c2c1C | 4% | 8% | -1% | 0 | -3% | 11µM*
COc1ccc(NCc2cc3cc4c(cc3n(CC(=O)Nc3ccc(C)c(C)c3)c2=O)OCO4)cc1 | 0% | . | . | . | 1% | .
O=S(=O)(c1ccc(=S)[nH]c1)N1CCN(Cc2ccccc2)CC1 | . | 5% | . | -66* | . | -1%[15.4 µM]
NC(=O)c1cccc(N=Cc2cc(Cl)cc(Cl)c2O)c1 | -1% | -10% | -2% | -21 | 1% | -35%
Cc1cccc(N=Cc2cc(Br)cc(Cl)c2O)c1 | 9% | -34% | -5% | -64* | -3% | 3%[15.4 µM]
COc1ccc(C)cc1NC(=O)Cn1nc(N2CCN(c3ccccc3OC)CC2)ccc1=O | 0% | . | . | -13 | 0% | .

Arranged by the number under RXFP1 antagonist (descending): 5 of the compounds above.
Molecule	RXFP1 antagonist
COc1ccc(C)cc1NC(=O)Cn1nc(N2CCN(c3ccccc3OC)CC2)ccc1=O	-13
NC(=O)c1cccc(N=Cc2cc(Cl)cc(Cl)c2O)c1	-21
Cc1cccc(N=Cc2cc(Br)cc(Cl)c2O)c1	-64*
O=S(=O)(c1ccc(=S)[nH]c1)N1CCN(Cc2ccccc2)CC1	-66*
O=[N+]([O-])c1cccc(N/N=C/c2cccc(O)c2O)c1	-87*

Following part:
Compound | RXFP1 agonist | gsp antagonist | KinaseGlo FLuc | RXFP1 antagonist | miR-21 reporter | gsp agonist
CCCn1cc(S(=O)(=O)c2ccc(CC)cc2)c(=O)c2cc(F)c(N3CCN(C)CC3)cc21 | 2% | . | . | -17 | 0% | .
CC(=O)CSc1nc(-c2cccs2)c(C#N)c(=O)[nH]1 | 14µM* | -2% | -1% | 22 | 0% | ?
CCN(CC)c1ccc(NS(=O)(=O)c2cc(-c3onc(C)c3C)ccc2OC)c(C)c1 | -1% | . | . | -15 | 9% | .
Cc1ccc(C(=O)NCCNc2nc3cc(C)c(C)cc3cc2C)cc1 | -1% | 3% | 0% | -9 | -1% | 22µM*
Cn1cccc1C(=O)N1CCC[C@@]2(CCN(Cc3cc(C(F)(F)F)cc(C(F)(F)F)c3)C2)C1 | . | . | 0% | . | . | .
COC(=O)c1cc(Cl)ccc1OC | . | . | . | 13 | . | .
CCOc1ccc(CC(=O)NCCc2csc(-c3ccc(C)cc3)n2)cc1 | 2% | . | . | -35 | -6% | .
Cc1c(C(=O)OCc2ccccc2)[nH]c2c1C(=O)CC(c1ccc(C(C)(C)C)cc1)C2 (stereo not drawn) | -3% | . | . | -11 | 6% | .
CCOC(=O)c1[nH]c2c(c1Cc1ccccc1)C(=O)CC(c1ccc(C(C)(C)C)cc1)C2 (stereo not drawn) | -1% | . | . | -64* | 17% | .
CC1CCN(c2nn3c(=O)c(C(=O)NCc4ccc(Cl)cc4)cnc3s2)CC1 | 0% | . | . | 1 | 0% | .

Going on with the list.
Compound | RXFP1 agonist | gsp antagonist | KinaseGlo FLuc | RXFP1 antagonist | miR-21 reporter | gsp agonist
CCC(=O)Nc1c(-c2ccccc2Cl)c(=O)c2ccccc2n1CC | 0% | 8% | . | -9 | -3% | 16µM*
CN(Cc1cn(C)nc1-c1ccc(Oc2ccccc2)cc1)Cc1cnc2ccccn12 | -1% | 40µM* | 1% | 8 | 29% | ?
Cn1cc(CNCc2cnc3ccccn23)c(-c2ccc(Oc3ccccc3)cc2)n1 | 1% | -17% | 3% | 6 | 5% | 26%
CC1CN(CCCCOc2cccc(Oc3ccccc3)c2)CC(C)O1 (stereo not drawn) | 2% | 4% | -2% | -64* | 4% | 8%[15.4 µM]
CC1CN(CCOc2cccc(Oc3ccccc3)c2)CC(C)O1 (stereo not drawn) | -2% | 7% | . | -10 | -2% | 11%
Cc1ncc(CO)c2c1Oc1nc(-c3ccccc3F)nc(SCC(=O)N(C)c3ccccc3)c1C2 | 0% | 40µM* | . | -91* | 8% | -23%
Cc1cccc(-c2nc3c(c(SCC(=O)N4CCOCC4)n2)Cc2c(CO)cnc(C)c2O3)c1 | 3% | 40µM* | . | -16 | 9% | 0%
CC(=O)c1ccc(NC(=O)CSc2cn(CC(=O)N3CCCCCC3)c3ccccc23)cc1 | -1% | . | . | 1 | ? | .
CCOc1ccc(CCNC(=O)c2[nH]c(C)c(C(C)=O)c2CC)cc1OCC | -1% | -7% | 2% | -7 | 20% | ?
CCc1c(C(=O)Nc2cc(C)cc(C)c2)[nH]c(C)c1C(C)=O | -1% | 35µM* | -2% | -9 | 14% | -7%

Other compounds
Compound | RXFP1 agonist | gsp antagonist | KinaseGlo FLuc | RXFP1 antagonist | miR-21 reporter | gsp agonist
O=C(NC(Nc1ncc(S(=O)(=O)c2ccc([N+](=O)[O-])cc2)s1)(C(F)(F)F)C(F)(F)F)c1ccc(Cl)cc1 | -3% | 35µM* | -1% | -36 | ? | 4%[15.4 µM]
CN(CC(=O)Nc1cccc(F)c1)C(=O)CSc1ccc(Br)cc1 | 0% | -17% | . | -72* | . | 0%[15.4 µM]
CCOC(=O)CSc1nc(C(C)C)nc2sc(C)c(C)c12 | 0% | -10% | -1% | -60* | 4% | 7%[15.4 µM]
CCC(C(=O)NCCCc1ccccc1)n1nc(C)c2c(C)n(-c3ccccc3)nc2c1=O (stereo not drawn) | 0% | -18% | . | -62* | 1% | 10%
CCCCOc1ccc(N(CC(=O)NCCOC)C(=O)CCC(=O)Nc2ccccn2)cc1 | 3% | 32µM* | . | -3 | 1% | -10%
CCCCOc1ccc(N(CC(=O)NC(C)(C)CC)C(=O)CCC(=O)Nc2ccccn2)cc1 | 0% | -5% | -6% | -28 | 7% | 2%[15.4 µM]
Cc1ccc(SCc2c(C(=O)N/N=C/c3ccc4c(c3)OCO4)nnn2-c2nonc2N)cc1 | 2% | ? | . | -5 | -4% | -14%
Cc1ccc(SCc2c(C(=O)N/N=C/c3ccoc3)nnn2-c2nonc2N)cc1 | 0% | 32µM* | . | 4 | 0% | -18%
Cc1ccc(-c2c(C(=O)N/N=C/c3ccc4c(c3)OCO4)nnn2-c2nonc2N)cc1 | 5% | 25µM* | . | -7 | -1% | 21%
CCOc1cccc(-c2c(C(=O)N/N=C/c3ccsc3)nnn2-c2nonc2N)c1 | 0% | -30% | . | -61* | -5% | 14%

Copied from the list:
`CCCCOc1ccc(N(CC(=O)NC(C)(C)CC)C(=O)CCC(=O)Nc2ccccn2)cc1` – RXFP1 antagonist: -28
`CCOc1cccc(-c2c(C(=O)N/N=C/c3ccsc3)nnn2-c2nonc2N)c1` – RXFP1 agonist: 0%

The listing continues:
Compound | RXFP1 agonist | gsp antagonist | KinaseGlo FLuc | RXFP1 antagonist | miR-21 reporter | gsp agonist
CCOc1cccc(-c2c(C(=O)N/N=C/c3sccc3C)nnn2-c2nonc2N)c1 | 1% | ? | . | -2 | 3% | -1%
Cc1ccc(SCc2c(C(=O)N/N=C/c3ccccc3)nnn2-c2nonc2N)cc1 | -3% | -31% | . | -32 | 3% | 9%[15.4 µM]
COc1cc(/C=C(/C#N)C(=O)c2c(C)[nH]c3ccccc23)ccc1OCC#N | 0% | -1% | . | -16 | -4% | 3%
CCOc1ccc(/C=C(\C#N)C(=O)c2c(C)[nH]c3ccccc23)cc1OC | 2% | ? | 6% | -63* | 0% | 5%[15.4 µM]
Cc1ccc2nc(SCCCCOc3ccccc3)[nH]c2c1 | 4% | 40µM* | -2% | -3 | -10% | -4%
Cc1c(CNC2CCCCCC2)c(C(=O)O)c(C)n1Cc1c(F)cccc1Cl | 2% | . | . | -19 | -3% | .
